Assay results: US20150166625A1 (Sanofi, priority 2013, published 2015)

How the values were obtained:
physchem = assay type: physicochemical
Excerpt: As HPLC/UPLC method, method D or E has been used.

[1] = assay type: physicochemical; settings: buffer, 168 h; for Stability pH4.5 (% remaining peptide): pH 4.5; for Stability pH7.4 (% remaining peptide): pH 7.4
Description: After that time course, the sample was centrifuged for 20 min at 4000 rpm and the supernatant was analysed with HPLC-UV. For determination of the amount of the remaining peptide, the peak areas of the target compound at t0 and t7 were compared, resulting in “% remaining peptide”, following the equation % remaining peptide=[(peak area peptide t7)×100]/peak area peptide t0. The chemical stability is expressed as “% remaining peptide”. As HPLC/UPLC method, method D or E has been used.

| SMILES | solubility at 2 h (physchem; pH 4.5) [mg/mL] | solubility at 2 h (physchem; pH 7.4) [mg/mL] | Stability pH4.5 (% remaining peptide) [1] [%] | Stability pH7.4 (% remaining peptide) [1] [%] |
| --- | --- | --- | --- | --- |
| CC[C@H](C)[C@H](NC(=O)[C@H](CC(C)C)NC(=O)[C@H](Cc1c[nH]c2ccccc12)NC(=O)[C@H](CCC(=O)O)NC(=O)[C@@H](NC(=O)[C@H](Cc1ccccc1)NC(=O)[C@H](CC(=O)O)NC(=O)[C@H](CCCNC(=N)N)NC(=O)[C@H](C)NC(=O)[C@H](CC(C)C)NC(=O)[C@H](CCC(N)=O)NC(=O)[C@H](CCC(=O)O)NC(=O)[C@H](CC(=O)O)NC(=O)[C@H](CC(C)C)NC(=O)[C@H](CCC(N)=O)NC(=O)[C@H](CCCCN)NC(=O)[C@H](CO)NC(=O)[C@H](CC(C)C)NC(=O)[C@H](CC(=O)O)NC(=O)[C@H](CO)NC(=O)[C@@H](NC(=O)[C@H](Cc1ccccc1)NC(=O)[C@@H](NC(=O)CNC(=O)[C@H](Cc1c[nH]cn1)NC(=O)C(C)(C)NC(=O)[C@@H](N)Cc1c[nH]cn1)[C@@H](C)O)[C@@H](C)O)[C@@H](C)CC)C(=O)N[C@@H](C)C(=O)NCC(=O)NCC(=O)N1CCC[C@H]1C(=O)N[C@@H](CO)C(=O)N[C@@H](CO)C(=O)NCC(=O)N[C@@H](C)C(=O)N1CCC[C@H]1C(=O)N1CCC[C@H]1C(=O)N1CCC[C@H]1C(=O)N[C@@H](CO)C(N)=O [SEQ ID NO: 5, H-Aib-HGTFTSDLSKQLDEQLARDFIEWLIAGGPSSGAPPPS-NH2] | 0.934 (≈ 225 µM) | > 1 | 100 | 77.5 |
| CC[C@H](C)[C@H](NC(=O)[C@H](CC(C)C)NC(=O)[C@H](Cc1c[nH]c2ccccc12)NC(=O)[C@H](CCC(=O)O)NC(=O)[C@@H](NC(=O)[C@H](Cc1ccccc1)NC(=O)[C@H](CC(=O)O)NC(=O)[C@H](CCCCN)NC(=O)[C@H](C)NC(=O)[C@H](CC(C)C)NC(=O)[C@H](CCC(N)=O)NC(=O)[C@H](CCC(=O)O)NC(=O)[C@H](CC(=O)O)NC(=O)[C@H](CC(C)C)NC(=O)[C@H](CCC(N)=O)NC(=O)[C@H](CCCCN)NC(=O)[C@H](CO)NC(=O)[C@H](CC(C)C)NC(=O)[C@H](CC(=O)O)NC(=O)[C@H](CO)NC(=O)[C@@H](NC(=O)[C@H](Cc1ccccc1)NC(=O)[C@@H](NC(=O)CNC(=O)[C@H](Cc1c[nH]cn1)NC(=O)C(C)(C)NC(=O)[C@@H](N)Cc1c[nH]cn1)[C@@H](C)O)[C@@H](C)O)[C@@H](C)CC)C(=O)N[C@@H](C)C(=O)NCC(=O)NCC(=O)N1CCC[C@H]1C(=O)N[C@@H](CO)C(=O)N[C@@H](CO)C(=O)NCC(=O)N[C@@H](C)C(=O)N1CCC[C@H]1C(=O)N1CCC[C@H]1C(=O)N1CCC[C@H]1C(=O)N[C@@H](CO)C(N)=O [compound 9] | 0.91 (≈ 221 µM) | 0.93 (≈ 226 µM) | 100.0 | 99.5 |

Converted amounts (≈) assume the structure as drawn.
